Data published in PMC12621184, “Synthesis and Pharmacological Characterization of Nociceptin/Orphanin FQ Dimeric Ligands” (Journal of Medicinal Chemistry, 2025).

Tests used:
human NOP [1] = target: T1, human NOP (Homo sapiens, UniProt P41146); assay: Calcium mobilization assay, CHO cells with NOP receptor and chimeric G protein; assay type: cell-based; design: expressed in transfected cells
Procedure: Chinese hamster ovary (CHO) cells stably coexpressing the human NOP, μ, or κ opioid receptors and the Gαqi5 protein or the human δ and the GαqG66Di5 protein were used in this assay. , Cells were cultured in DMEM/F-12 (1:1) medium supplemented with 10% FBS, 2 mM L-glutamine, […], 100 IU/mL penicillin, and 100 IU/mL streptomycin. Cells were maintained at 37 °C in a humidified atmosphere with 5% CO2 and were seeded at 50 000 cells/well into 96-well black, clear-bottom plates 24 h before test. Loading for 45 min with a solution consisting of HBSS supplemented with 2.5 mM probenecid, 3 μM Fluo-4 AM, and 0.01% pluronic acid ensures the calcium-sensitive dye (Fluo-4) reaches the needed concentration inside the cell, while the exchange of the solution with 100 μL/well of buffer consisting of HBSS with 20 mM HEPES, 2.5 mM probenecid, and 500 μM Brilliant Black allows for fluorescence background to decrease. Serial dilutions of ligands were prepared in HBSS buffer with 20 mM HEPES and 0.02% bovine serum albumin (BSA) to minimize the ligands’ stickiness to plasticware. The automated microplate reader FlexStation II (Molecular Devices, CA, US) was employed at 37 °C to detect changes in fluorescence intensity. The effects of all compounds were expressed as the maximum change in percentage over the baseline fluorescence measured in samples treated with vehicles. […]

human NOP [2] = target: T1, human NOP; assay: NOP receptor–G protein interaction BRET assay; assay type: biochemical; design: expressed in transfected cells; host or cells: membranes of HEK293 cells stably coexpressing NOP-RLuc and Gβ1-RGFP; settings: N = 5 experiments in duplicate
Procedure: A BRET interaction assay was used, as previously detailed in ref , to study the propensity of ligands to evoke interaction between the NOP receptor and to G protein. Membranes taken from HEK293 cells stably coexpressing the fusoproteins NOP-RLuc and Gβ1-RGFP were used. Such cells were grown in DMEM medium supplemented with 10% FBS, 2 mM L-glutamine, […] G418, […] hygromycin B, 100 IU/mL penicillin, and 100 IU/mL streptomycin in a humidified atmosphere with 5% CO2 at 37 °C. Cell membranes were thawed and resuspended in PBS supplemented with 0.01% BSA before the assay, and an amount of 3 μg of total protein was dispensed in each of the 96 wells together with 2 μM Prolume Purple Coelenterazine. All experiments were carried out at room temperature. Ligands were added, and averaged BRET ratios from 10 min measurements were computed. […]
Concentration-response curves to agonists were analyzed by a four-parameter logistic nonlinear regression model: Effect = baseline + (E max – baseline)/(1 + 10^((logEC50–log[ligand])slope)). […] Experimental data were expressed as mean ± sem of at least 5 experiments. Potency values were expressed as the mean and CL95%. In vitro E max values were analyzed by one-way ANOVA, while in vivo latency data were evaluated by one-way ANOVA followed by Dunnett’s post hoc test. […]

In the case of “[[Cys^15]N/OFQ-NH2]2 (FGGFTGARKSARKLCNQ; C-terminal amide; Cys15 disulfide-bonded to Cys15 of the second copy) [1i]”, the “Ca^2+ mobilization pEC50 (CL95%)” value (human NOP [1]; CHO cells coexpressing human NOP and Gαqi5, Fluo-4, 37 °C, mean (CL95%), N = 5 experiments in duplicate) is reported as 8.53(7.78–9.28), the “Ca^2+ mobilization E max ± sem” value (human NOP [1]; CHO cells coexpressing human NOP and Gαqi5, maximum change in percentage over baseline fluorescence, mean ± sem, N = 5 in duplicate) is reported as 297 ± 26 % over the baseline and the “NOP–G protein interaction E max ± sem” value (human NOP [2]; effects normalized to N/OFQ-NH2 (E max = 1), mean ± sem) is reported as 0.95 ± 0.03. The “NOP–G protein interaction pEC50 (CL95%)” value (human NOP [2]; membranes from HEK293 cells coexpressing NOP-RLuc and Gβ1-RGFP, room temperature, mean (CL95%)) was 9.71 (8.95–10.48).
